Results as given in PubChem BioAssay AID720553 (National Center for Advancing Translational Sciences (NCATS), 2013).
This is a selection; strong and weak results do not stand in their true shares. Activity calls are given as the source filed them.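 The calls were made as follows: active = maximum activity change below -70%; inconclusive = maximum activity change from -70% to -50%; inactive = maximum activity change above -50%.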

system: Potassium voltage-gated channel subfamily H member 2, brain isoform KCNH2 3.1 (human); experiment: qHTS for Inhibitors of KCHN2 3.1: Mutant qHTS; conditions: U2OS KCNH2 3.1, thallium flux FluxOr; stronger effect = lower value
Text: Many antipsychotic drugs that inhibit the neurotransmitter dopamine also bind to hERG1 channel which might help explain their antipsychotic activity but also produces cardiac side effects. The discovery of the novel KCNH2 3.1 isoform offers a potential new target for the development of antipsychotic drugs without cardiac side effects. This proposal will use a high throughput thallium flux assay developed for KCNH2 to screen compounds that modulate the activity of KCNH2 3.1. The wild type KCNH2 channel will also be screened in parallel to help define the selective modulators of this KCNH2 3.1 potassium channel. The resulting compounds will be validated in electrophysiology experiments. The availability of animal models will allow future testing in vivo for effects on memory and other aspects of animal physiology linked with psychosis. NIH Chemical Genomics Center [NCGC] NIH Molecular Libraries Probe Centers Network [MLPCN] MLPCN Grant: MH096539 Assay Submitter (PI): James Barrow, Johns Hopkins University, Lieber Institute for Brain Development
U2OS cells were resuspended in cell media containing 10% fetal calf serum (FCS) at a concentration of 2 million cells / mL. […] A stimulation buffer was added to the plate and the second kinetic read (2 min) was obtained. The rate constant was calculated from the kinetic reads and normalized to the positive and negative DMSO controls.
% is scaled to controls: 0 for no effect and ±100 for the full control effect.

Compound	activity change
CCC(=O)N(c1ccccc1)C1(COC)CCN(CCn2nnn(CC)c2=O)CC1	inactive: 3.81%
